92 compounds from PubChem BioAssay AID588591 (National Center for Advancing Translational Sciences (NCATS), 2011) can be followed below.

Amino acid sequences for entries named in this document (tags omitted).
UniProt Q9Y253, whole entry: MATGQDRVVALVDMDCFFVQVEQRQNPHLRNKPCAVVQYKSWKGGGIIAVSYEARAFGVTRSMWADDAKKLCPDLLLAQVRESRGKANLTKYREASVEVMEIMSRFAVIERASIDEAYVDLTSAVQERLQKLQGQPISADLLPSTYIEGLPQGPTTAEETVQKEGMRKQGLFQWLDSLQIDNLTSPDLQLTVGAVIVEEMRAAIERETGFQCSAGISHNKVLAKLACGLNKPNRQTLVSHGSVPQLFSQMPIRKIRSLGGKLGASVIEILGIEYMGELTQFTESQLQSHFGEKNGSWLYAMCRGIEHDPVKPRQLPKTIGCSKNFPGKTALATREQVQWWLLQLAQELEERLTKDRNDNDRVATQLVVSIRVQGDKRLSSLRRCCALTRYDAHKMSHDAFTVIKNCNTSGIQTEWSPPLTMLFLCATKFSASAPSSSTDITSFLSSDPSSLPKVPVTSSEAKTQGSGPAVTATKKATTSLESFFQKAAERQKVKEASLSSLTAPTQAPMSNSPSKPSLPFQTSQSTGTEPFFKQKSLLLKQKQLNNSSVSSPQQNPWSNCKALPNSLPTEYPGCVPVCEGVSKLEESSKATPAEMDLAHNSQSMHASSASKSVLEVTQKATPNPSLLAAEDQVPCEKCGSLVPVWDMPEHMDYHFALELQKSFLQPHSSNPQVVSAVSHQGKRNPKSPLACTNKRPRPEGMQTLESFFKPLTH

Only a part is listed here, and it is no random draw. Results filed as inconclusive are left out. Calls of active or inactive are those of the source. Calls come from the whole dose curve; as a rule, active = well fitted inhibition curve with a large enough effect; inconclusive = small, poorly fitted or top-dose-only effect, or another doubt; inactive = no such curve, though single readings can be large or run the other way.
% is set by controls: 0 for no effect and ±100 for the full control effect.

This test has as its target DNA polymerase eta (Homo sapiens) (UniProt Q9Y253). The experiment in a line: qHTS for Inhibitors of Polymerase Eta. The note with it: recombinant Pol eta, fluorescent DNA replication assay; at 114 µM (top of the series). A general note: In qHTS, concentration-response curves come from the screen itself.
Regarding `Cc1ccccc1NC1(C#N)CCN(Cc2ccccc2)CC1`, the activity change, negative = inhibition is inactive: -12.6%.
Take `CCN1CCC(Nc2cccc(F)c2)CC1`: the activity change, negative = inhibition is inactive: -16.4%.
In the case of `CC(C)(C)c1ccc(C(=O)NCC2(N3CCOCC3)CCCCC2)cc1`, the activity change, negative = inhibition is inactive: -20.6%.
Turning to `O=C(NCC1(N2CCCCC2)CCCCC1)c1ccco1`, the activity change, negative = inhibition was inactive: -3.43%.
With `Cn1c(=O)[nH]cc(N(CCCl)CCCl)c1=O` the figure was inactive: -16.9%; with `CN(C)c1ccc(C(=O)NCC2(N3CCCCC3)CCCCC2)cc1`, inactive: -2.17%.
For `Cc1ccccc1C(=O)NCC1(N(C)C)CCCCC1`, the activity change, negative = inhibition is inactive: 6.66%.
Regarding `COc1cc(OC)cc(C(=O)NCC2(N3CCCCC3)CCCCC2)c1`, the activity change, negative = inhibition was inactive: -8.03%.
Turning to `CC(=O)N(c1ccccc1)C1CCNCC1`, the activity change, negative = inhibition was inactive: -13.1%.
Regarding `CN(C)C1(CNC(=O)c2ccc(C(C)(C)C)cc2)CCCCC1`, the activity change, negative = inhibition is inactive: -10.2%.
Take `Cc1ccc(NC2(C#N)CCN(Cc3ccccc3)CC2)cc1`: the activity change, negative = inhibition is inactive: -3.96%.
With `Cc1ccc(C(=O)NCC2(N3CCCCC3)CCCCC2)o1` the figure was inactive: -6.18%; with `Cc1ccc(Nc2c([N+](=O)[O-])cc([N+](=O)[O-])cc2[N+](=O)[O-])cc1`, inactive: -16.9%.
With `Fc1ccccc1NC1CCN(Cc2ccccc2)CC1` the figure was inactive: 3.68%; with `CCC(CO)(C(=O)OC1CN2CCC1CC2)c1ccccc1` (configuration not stated), inactive: -0.428%.
As to `COc1cccc(C(=O)N(c2cc(C)cc(C)c2)C2CCN(C(=O)OC(C)(C)C)CC2)c1`, the activity change, negative = inhibition was inactive: -15.1%.
In the case of `COc1cc(C(=O)NCC2(N3CCOCC3)CCCCC2)cc(OC)c1OC`, the activity change, negative = inhibition was inactive: -11.1%.
With `COc1cc(OC)cc(C(=O)NCC2(N3CCOCC3)CCCCC2)c1` the figure was inactive: -5.15%.
With `CN1CCC(Nc2ccc(Cl)cc2)CC1`, the activity change, negative = inhibition is inactive: -17.1%.
On to `CCOc1ncccc1C(=O)NCC1(N2CCOCC2)CCCCC1`, for which the activity change, negative = inhibition was inactive: -9.24%.
Turning to `CN1CCC(Nc2ccc(F)c(Cl)c2)CC1`, the activity change, negative = inhibition was inactive: -18.3%.
For `CCCOc1ccc(C(=O)NCC2(N(C)C)CCCCC2)cc1`, the activity change, negative = inhibition was inactive: -8.98%.
`CC(C)(C)OC(=O)N1CCC(Nc2ccccc2)CC1`: the activity change, negative = inhibition was inactive: -9.03%.
Consider `O=C(O)C1(Nc2ccccc2)CCN(Cc2ccccc2)CC1`, for which the activity change, negative = inhibition is inactive: -16.6%.
`N/C(=N\O)c1c(N)no[n+]1[O-]`: the activity change, negative = inhibition was inactive: -18.5%.
In the case of `CCOC(=O)N1CCC(Nc2ccc(C)cc2)CC1`, the activity change, negative = inhibition is inactive: -3.87%.
As to `O=C(OC1CN2CCC1CC2)C1c2ccccc2C=Cc2ccccc21` (configuration not stated), the activity change, negative = inhibition is inactive: -19.3%.
With `CCc1cc(C(=O)NCC2(N3CCCCC3)CCCCC2)sc1C` the figure was inactive: -17%; with `O=C(NCC1(N2CCOCC2)CCCCC1)c1cc(Br)ccc1Cl`, inactive: -8.77%.
For the compound `COc1cc(C(=O)NCC2(N3CCOCC3)CCCCC2)cc(OC)c1C`, the activity change, negative = inhibition is inactive: -14.9%.
As for `COc1ccc(C(=O)NCC2(N3CCOCC3)CCCCC2)cc1OC`, the activity change, negative = inhibition is inactive: -5.03%.
Regarding `c1ccc(CN2CCC(Nc3ccccc3)CC2)cc1`, the activity change, negative = inhibition was inactive: -5.68%.
With `CCCN1CCC(Nc2cc(OC)cc(OC)c2)CC1`, the activity change, negative = inhibition is inactive: -23.9%.
Take `Cc1cc(N(CCCl)CCCl)ccc1C=O`: the activity change, negative = inhibition is inactive: -19%.
Regarding `O=C(NCC1(N2CCOCC2)CCCCC1)c1ccccc1`, the activity change, negative = inhibition was inactive: 5.71%.
On to `CN(C)C1(CNC(=O)c2cccc(C#N)c2)CCCCC1`, for which the activity change, negative = inhibition was inactive: -3.52%.
With `O=C(NCC1(N2CCOCC2)CCCCC1)c1ccc([N+](=O)[O-])cc1` the figure was inactive: -18.5%.
With `O=C(NCC1(N2CCOCC2)CCCCC1)c1ccccc1[N+](=O)[O-]`, the activity change, negative = inhibition was inactive: -8.93%.
With `N#Cc1ccc(C(=O)NCC2(N3CCCCC3)CCCCC2)cc1` the figure was inactive: 0.215%.
Consider `CCOC(=O)C(CC)C1=NC(C)(C)Cc2ccccc21.O=[N+]([O-])c1cc([N+](=O)[O-])c(O)c([N+](=O)[O-])c1` (configuration not stated), for which the activity change, negative = inhibition is inactive: -20.4%.
`O=C(NCC1(N2CCCCC2)CCCCC1)c1cccc(C(F)(F)F)c1`: the activity change, negative = inhibition was inactive: -6.43%.
For the compound `CCCOc1cccc(C(=O)NCC2(N3CCOCC3)CCCCC2)c1`, the activity change, negative = inhibition was inactive: -8.51%.
In the case of `O=[N+]([O-])c1cc([N+](=O)[O-])c(NCC2CCS(=O)(=O)C2)c([N+](=O)[O-])c1` (configuration not stated), the activity change, negative = inhibition was inactive: -14.9%.
As to `COc1ccc(NC2CCN(C(=O)OC(C)(C)C)CC2)cc1`, the activity change, negative = inhibition was inactive: -13.5%.
On to `CC(C)c1ccc(C(=O)NCC2(N3CCOCC3)CCCCC2)cc1`, for which the activity change, negative = inhibition is inactive: -9.39%.
With `CN1CCN(CCOC(=O)C(O)(c2ccccc2)c2ccccc2)CC1` the figure was inactive: 11.1%; with `O=C(NCC1(N2CCOCC2)CCCCC1)c1cc(=O)[nH]c2ccccc12`, inactive: -4.12%.
With `COc1cc(C(=O)NCC2(N3CCCCC3)CCCCC2)ccc1OC(F)F` the figure was inactive: -17.7%; with `O=C(NCC1(N2CCCCC2)CCCCC1)c1ccc(OC(F)F)cc1`, inactive: -19.2%; with `O=C(NCC1(N2CCCCC2)CCCCC1)c1cccc([N+](=O)[O-])c1`, inactive: 6.2%.
For the compound `CCOc1ccc(C(=O)NCC2(N3CCOCC3)CCCCC2)cc1`, the activity change, negative = inhibition was inactive: -9.29%.
For `CSc1ccc(C(=O)NCC2(N3CCOCC3)CCCCC2)cc1`, the activity change, negative = inhibition was inactive: -0.0626%.
With `CCN1CCC(Nc2ccc(Cl)cc2)CC1`, the activity change, negative = inhibition was inactive: -3.75%.
On to `N#CC1(Nc2ccccc2)CCN(CCc2ccccc2)CC1`, for which the activity change, negative = inhibition is inactive: 3.83%.
In the case of `O=C(NCC1(N2CCCCC2)CCCCC1)c1cncc(Br)c1`, the activity change, negative = inhibition is inactive: -3.17%.
For the compound `CN1CCC(Nc2cccc(F)c2)CC1`, the activity change, negative = inhibition was inactive: -10.3%.
With `O=C(OC1CN2CCC1CC2)c1ccc([N+](=O)[O-])cc1` (configuration not stated) the figure was inactive: -19.9%; with `Cc1ccc(C(=O)NCC2(N(C)C)CCCCC2)o1`, inactive: -0.103%; with `CCCCOc1ccccc1C(=O)NCC1(N2CCOCC2)CCCCC1`, inactive: -7.92%.
In the case of `CCCOc1ccc(C(=O)NCC2(N(C)C)CCCCC2)cc1OC`, the activity change, negative = inhibition was inactive: -8.61%.
On to `O=C(NCC1(N2CCOCC2)CCCCC1)c1ccccc1Br`, for which the activity change, negative = inhibition was inactive: -13.2%.
Consider `O=[N+]([O-])c1cc([N+](=O)[O-])c(Nc2ccc(Cl)cc2)c([N+](=O)[O-])c1`, for which the activity change, negative = inhibition was inactive: -3.77%.
As for `COc1ccc(CN(CCCl)CCCl)cc1Cl`, the activity change, negative = inhibition is inactive: -27.9%.
On to `CN(C)c1cccc(C(=O)NCC2(N3CCCCC3)CCCCC2)c1`, for which the activity change, negative = inhibition was inactive: -15.2%.
With `O=[N+]([O-])c1cc([N+](=O)[O-])c(OC2CCCCC2O)c([N+](=O)[O-])c1` (configuration not stated) the figure was inactive: -22.3%; with `COc1cc(OC)c(C(=O)NCC2(N(C)C)CCCCC2)cc1OC`, inactive: 8.88%.
With `O=C(NCC1(N2CCOCC2)CCCCC1)c1cc(F)c(F)cc1Cl`, the activity change, negative = inhibition is inactive: -14.9%.
With `O=C(NCC1(N2CCOCC2)CCCCC1)c1cc2ccccc2o1`, the activity change, negative = inhibition is inactive: -2.11%.
As to `O=C(NCC1(N2CCCCC2)CCCCC1)c1ccc(Cl)nc1`, the activity change, negative = inhibition was inactive: -9.84%.
With `Cc1cc(C)cc(N(C(=O)c2ccccc2)C2CCN(C(=O)OC(C)(C)C)CC2)c1` the figure was inactive: -12.2%.
In the case of `CCOC(=O)N1CCC(Nc2ccc(OC)cc2)CC1`, the activity change, negative = inhibition was inactive: -7.44%.
In the case of `O=C(NCC1(N2CCCCC2)CCCCC1)c1ccc(Cl)s1`, the activity change, negative = inhibition is inactive: -9.04%.
On to `N#CC1(Nc2ccccc2)CCN(Cc2ccccc2)CC1`, for which the activity change, negative = inhibition is inactive: -2.48%.
With `COc1ccc(Cl)cc1C(=O)NCC1(N2CCOCC2)CCCCC1` the figure was inactive: -22.7%.
For the compound `O=C(NCC1(N2CCCCC2)CCCCC1)c1ccc(=O)[nH]c1`, the activity change, negative = inhibition is inactive: -13.2%.
For the compound `O=C(NCC1(N2CCCCC2)CCCCC1)c1cccs1`, the activity change, negative = inhibition is inactive: 6.2%.
Consider `COc1ccc(C(=O)NCC2(N3CCCCC3)CCCCC2)cc1`, for which the activity change, negative = inhibition was inactive: -5.89%.
For the compound `COc1ccc(C(=O)NCC2(N3CCCCC3)CCCCC2)c(OC)c1OC`, the activity change, negative = inhibition is inactive: -1.02%.
Turning to `CC(C)(C)OC(=O)N1CCC(N(C(=O)c2ccccc2)c2ccc(F)cc2)CC1`, the activity change, negative = inhibition is inactive: -23.2%.
With `CSc1ccccc1C(=O)NCC1(N2CCCCC2)CCCCC1` the figure was inactive: 1.1%; with `Cc1cccc(NC2(C#N)CCN(Cc3ccccc3)CC2)c1`, inactive: -19.8%; with `COc1cc(C(=O)NCC2(N(C)C)CCCCC2)ccc1OC(F)F`, inactive: -11%.
For the compound `CCOC(=O)N1CCC(Nc2cccc(C)c2)CC1`, the activity change, negative = inhibition is inactive: -12.1%.
Take `CCOc1ccc(C)cc1CN(CCCl)CCCl`: the activity change, negative = inhibition is inactive: -8.25%.
On to `O=C(NCC1(N2CCOCC2)CCCCC1)c1ccc(Cl)cc1`, for which the activity change, negative = inhibition was inactive: -13.9%.
As to `O=C1CCN(Cc2ccccc2)CC1`, the activity change, negative = inhibition was inactive: -6.04%.
In the case of `O=C(NCC1(N2CCCCC2)CCCCC1)c1ccc(F)cc1`, the activity change, negative = inhibition is inactive: -18.2%.
Consider `CCCCOc1ccc(C(=O)NCC2(N3CCOCC3)CCCCC2)cc1`, for which the activity change, negative = inhibition is inactive: -4.15%.
In the case of `O=P1(N(CCCl)CCCl)SCCCS1`, the activity change, negative = inhibition is inactive: -7.19%.
With `CCOC(=O)N1CCC(Nc2ccc(F)cc2)CC1`, the activity change, negative = inhibition is inactive: -18.7%.
With `COc1ccc(NC2CCN(CCc3ccccc3)CC2)c(OC)c1` the figure was inactive: -7.72%.
As for `COc1ccccc1C(=O)NCC1(N2CCOCC2)CCCCC1`, the activity change, negative = inhibition is inactive: -0.161%.
